Data reported in ChEMBL document CHEMBL1137726, “Novel 4-aryl-pyrido[1,2-c]pyrimidines with dual SSRI and 5-HT1A activity, part 1” (Eur J Med Chem, 2009).

Tests used:
[1] = system: Mus musculus; assay: Induction of hypothermia in Albino Swiss mouse assessed as change in body temperature pretreated for 30 mins at 5 mg/kg, ip measured 30 mins after drug dose; type: functional, organism-based; parameters: dose 5 mg/kg
[2] = system: Mus musculus; assay: Induction of hypothermia in Albino Swiss mouse assessed as change in body temperature pretreated for 30 mins at 5 mg/kg, ip measured 90 mins after drug dose; type: functional, organism-based; parameters: dose 5 mg/kg
[3] = species: Mus musculus; details: Albino Swiss, 5 mg/kg
[4] = species: Mus musculus; details: Albino Swiss, 5 mg/kg; remark: listed apart in the source
[5] = system: Mus musculus; assay: Induction of hypothermia in Albino Swiss mouse assessed as change in body temperature pretreated for 30 mins at 5 mg/kg, ip measured 120 mins after drug dose; type: functional, organism-based; parameters: dose 5 mg/kg
[6] = species: Mus musculus; details: Albino Swiss, 0.1 mg/kg
[7] = species: Mus musculus; details: Albino Swiss, 0.1 mg/kg; remark: listed apart in the source
[8] = species: Mus musculus; details: Albino Swiss, 0.1 mg/kg; remark: listed apart in the source
[9] = species: Mus musculus; details: Albino Swiss, 0.1 mg/kg; remark: listed apart in the source

SMILES	deltaT [1]	deltaT [2]	deltaT [3]	deltaT [4]	deltaT [5]	deltaT [6]	deltaT [7]	deltaT [8]	deltaT [9]
Br.CCCN(CCC)C1CCc2cccc(O)c2C1 (centres undefined)	-1.5 °C	-0.7 °C	-0.2 °C	-0.1 °C	-0.2 °C	–	–	–	–
COc1ccccc1N1CCN(CCN(C(=O)C2CCCCC2)c2ccccn2)CC1	–	–	–	–	–	0.2 °C	0.1 °C	0.2 °C	0.1 °C
